# Antibody variant affinities, Ab-14 heavy chain, assay 1

Source: Engelhart et al. 2022 (doi:10.1038/s41597-022-01779-4), MIT Lincoln Laboratory and A-Alpha Bio; data file from the FLAb repository.

Target: peptide PDVDLGDISGINAS, taken from heptad repeat 2 (HR2) of SARS-CoV-2 spike.

Ab-14 is the parent antibody, in scFv form: VH, then three GGGGS repeats, then VL. The light chain is unchanged in all variants.
VH: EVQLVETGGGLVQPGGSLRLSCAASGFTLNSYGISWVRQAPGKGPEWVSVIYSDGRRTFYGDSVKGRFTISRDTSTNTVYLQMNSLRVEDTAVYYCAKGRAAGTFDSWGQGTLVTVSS
VL: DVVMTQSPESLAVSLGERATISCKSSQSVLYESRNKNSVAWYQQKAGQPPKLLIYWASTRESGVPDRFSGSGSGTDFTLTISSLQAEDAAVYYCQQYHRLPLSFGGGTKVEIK

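The starting antibody came from a phage panning campaign against this peptide. Library AAYL49 holds single substitutions and randomly drawn double and triple substitutions in the CDRs. The scFvs were displayed on barcoded MATa yeast, the peptide on MATalpha yeast. After mating in shaken culture at 30 °C for 16 h, diploids were selected and their barcode pairs sequenced. A regression on co-assayed BCL2-family reference pairs converts the normalised counts of each replicate to an apparent Kd. Mating was done three times.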

Sequences are complete VH domains. All variants listed here change T58 of the VH, counted from its first residue. Values are apparent Kd, the geometric mean of the replicates that gave a signal; lower means stronger binding. Where no diploid with the target was found in any replicate, the entry reads "nd": below detection, most likely a poor binder, though not proof of it. Three control strains display no target. For library AAYL49, 15% of the pairings with them gave a signal, with a median of 11 µM and one signal in twenty below 680 nM, so weak values seen in few replicates may be background. For each scFv, signals with the empty controls are counted beside the result. For reference, the parent read 4.4 nM as the reference entry and 13 µM (one replicate of three) as a member of this library.

VH,Kd,seen in,control signals
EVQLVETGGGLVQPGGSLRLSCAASIFTLMSYGISWVRQAPGKGPEWVSVIYSDGRRWFYGDSVKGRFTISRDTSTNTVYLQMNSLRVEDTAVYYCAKGRAAGTFDSWGQGTLVTVSS,nd,0 of 3,0 of 9
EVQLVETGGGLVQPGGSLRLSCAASGFTLNSYNISWVRQAPGKGPEWVSVIYSDGRRAFYGDVVKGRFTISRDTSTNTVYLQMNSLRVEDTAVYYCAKGRAAGTFDSWGQGTLVTVSS,200 µM,1 of 3,5 of 9
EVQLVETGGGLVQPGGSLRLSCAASVFTLNSYGISWVRQAPGKGPEWVSVIYSDGRRPFYGDSVKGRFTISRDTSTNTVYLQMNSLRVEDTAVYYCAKGRAEGTFDSWGQGTLVTVSS,nd,0 of 3,0 of 9
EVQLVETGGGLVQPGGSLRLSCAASGFTLNSYGISWVRQAPGKGPEWVSVIYSDGRRRFYCDSVKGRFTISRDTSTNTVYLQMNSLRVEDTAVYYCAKGRAAGTFDSWGQGTLVTVSS,27 nM,3 of 3,0 of 9
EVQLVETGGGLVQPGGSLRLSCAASGFTLNSYGISWVRQAPGKGPEWVSVIYSDGRRSFYGDSVKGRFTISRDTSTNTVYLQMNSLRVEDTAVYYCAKGRAAGTFDSWGQGTLVTVSS,72 nM,3 of 3,3 of 9
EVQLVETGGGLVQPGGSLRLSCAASGFTLNSYGISWVRQAPGKGPEWVSVIYSSGRRRFYGDSVKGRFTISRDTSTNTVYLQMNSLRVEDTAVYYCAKGREAGTFDSWGQGTLVTVSS,nd,0 of 3,0 of 9
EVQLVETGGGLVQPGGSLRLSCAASEETLNSYGISWVRQAPGKGPEWVSVIYSDGRRPFYGDSVKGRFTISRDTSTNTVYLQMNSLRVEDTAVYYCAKGRAAGTFDSWGQGTLVTVSS,3.0 µM,1 of 3,0 of 9
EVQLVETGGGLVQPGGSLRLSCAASGFTLNSYGISWVRQAPGKGPEWVSVIYSDGRRMFYGDSVKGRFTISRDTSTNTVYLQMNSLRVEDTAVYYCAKGRAAGTFDSWGQGTLVTVSS,110 nM,3 of 3,5 of 9
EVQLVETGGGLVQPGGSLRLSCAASGFNLNSYGISWVRQAPGKGPEWVSVIYSDGRRDFYGDSVKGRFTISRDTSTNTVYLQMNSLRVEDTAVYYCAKGRAAGTFDQWGQGTLVTVSS,180 nM,3 of 3,4 of 9
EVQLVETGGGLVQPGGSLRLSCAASGCTLNSYGISWVRQAPGKGPEWVSVIYSDGRRVFYGDSVKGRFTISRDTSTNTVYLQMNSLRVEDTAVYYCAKGRAAGTFVSWGQGTLVTVSS,9.6 µM,3 of 3,4 of 9
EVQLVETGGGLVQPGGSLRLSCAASGFTLNSYGISWVRQAPGKGPEWVSVIYSDGRRFFVGDSVKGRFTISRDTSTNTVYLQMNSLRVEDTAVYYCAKGRAAGQFDSWGQGTLVTVSS,nd,0 of 3,0 of 9
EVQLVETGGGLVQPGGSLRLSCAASGFTLNSYGISWVRQAPGKGPEWVSVHYSDGRRRFYADSVKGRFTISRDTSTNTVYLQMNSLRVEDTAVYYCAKGRAAGTFDSWGQGTLVTVSS,nd,0 of 3,1 of 9
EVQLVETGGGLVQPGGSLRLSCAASGFTLNSYGISWVRQAPGKGPEWVSVIYADGRRLFYGDAVKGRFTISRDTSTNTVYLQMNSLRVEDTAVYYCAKGRAAGTFDSWGQGTLVTVSS,22 nM,3 of 3,0 of 9
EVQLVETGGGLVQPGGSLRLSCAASGFLLNSYGISWVRQAPGKGPEWVSVIYSDGRRDFYGDSVKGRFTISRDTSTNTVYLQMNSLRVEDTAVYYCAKGHAAGTFDSWGQGTLVTVSS,700 nM,3 of 3,6 of 9
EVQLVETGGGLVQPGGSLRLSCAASGFTLNSYGISWVRQAPGKGPEWVSVIYSDGRRWFYGDSVRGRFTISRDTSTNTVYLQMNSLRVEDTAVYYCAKGRAAGDFDSWGQGTLVTVSS,nd,0 of 3,2 of 9
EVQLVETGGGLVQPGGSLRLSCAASVFTLNSYGISWVRQAPGKGPEWVSVIYSDGRRKFEGDSVKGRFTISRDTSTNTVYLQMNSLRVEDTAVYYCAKGRAAGTFDSWGQGTLVTVSS,110 µM,1 of 3,7 of 9
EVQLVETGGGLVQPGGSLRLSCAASGFTLNSYGITWVRQAPGKGPEWVSVIYSDGRRMTYGDSVKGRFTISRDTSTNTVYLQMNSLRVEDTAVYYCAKGRAAGTFDSWGQGTLVTVSS,nd,0 of 3,0 of 9
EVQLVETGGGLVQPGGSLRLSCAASGFYLNSYGISWVRQAPGKGPEWVSVIYSDGRRFFYGDSVKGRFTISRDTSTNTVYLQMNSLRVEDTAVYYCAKGRAAGTDDSWGQGTLVTVSS,120 nM,1 of 3,0 of 9
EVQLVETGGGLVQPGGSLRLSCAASGFTLNSYGISWVRQAPGKGPEWVSVIYSDIRRAFYGDSVKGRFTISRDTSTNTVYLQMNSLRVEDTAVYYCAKGRAAGTFGSWGQGTLVTVSS,nd,0 of 3,0 of 9
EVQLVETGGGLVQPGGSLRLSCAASGFTLNSYGISWVRQAPGKGPEWVSVIYSDGVRVVYGDSVKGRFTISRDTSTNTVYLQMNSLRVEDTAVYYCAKGRAAGTFDSWGQGTLVTVSS,21 nM,3 of 3,0 of 9
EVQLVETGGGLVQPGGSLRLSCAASGFPLNSYGISWVRQAPGKGPEWVSVIYSDGRRDFYGDSVMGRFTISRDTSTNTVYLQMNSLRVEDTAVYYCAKGRAAGTFDSWGQGTLVTVSS,1.4 µM,1 of 3,1 of 9
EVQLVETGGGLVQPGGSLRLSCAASGFTLNSYGISWVRQAPGKGPEWVSVIYSYGRRGFYGDSVKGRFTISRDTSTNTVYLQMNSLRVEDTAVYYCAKGRAAGTFDQWGQGTLVTVSS,180 µM,1 of 3,3 of 9

The closing 2 entries, repeated:

VH	Kd	seen in	control signals
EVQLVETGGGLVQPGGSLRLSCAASGFPLNSYGISWVRQAPGKGPEWVSVIYSDGRRDFYGDSVMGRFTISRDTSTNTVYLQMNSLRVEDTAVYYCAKGRAAGTFDSWGQGTLVTVSS	1.4 µM	1 of 3	1 of 9
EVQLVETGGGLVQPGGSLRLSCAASGFTLNSYGISWVRQAPGKGPEWVSVIYSYGRRGFYGDSVKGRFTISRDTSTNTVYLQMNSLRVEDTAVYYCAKGRAAGTFDQWGQGTLVTVSS	180 µM	1 of 3	3 of 9